Reference: PubChem BioAssay (Tox21)
Where “and” joins values, the source holds several entries; their conditions need not be identical. Equal entries are not always repeated. The entries are a selection whose mix differs from that of the whole data set. Inconclusive results are not listed. Calls of active or inactive are those of the source. Unless noted, calls come from the whole dose curve; as a rule, active = well fitted curve in the direction sought with a large enough effect in the repeat runs; inconclusive = weak or mixed curves; inactive = no such curve, though single readings can be large; an effect the other way counts as inactive or inconclusive.

Protein sequences, listed by entry. Tags and fused reporters are not part of them.
UniProt P11473, whole entry: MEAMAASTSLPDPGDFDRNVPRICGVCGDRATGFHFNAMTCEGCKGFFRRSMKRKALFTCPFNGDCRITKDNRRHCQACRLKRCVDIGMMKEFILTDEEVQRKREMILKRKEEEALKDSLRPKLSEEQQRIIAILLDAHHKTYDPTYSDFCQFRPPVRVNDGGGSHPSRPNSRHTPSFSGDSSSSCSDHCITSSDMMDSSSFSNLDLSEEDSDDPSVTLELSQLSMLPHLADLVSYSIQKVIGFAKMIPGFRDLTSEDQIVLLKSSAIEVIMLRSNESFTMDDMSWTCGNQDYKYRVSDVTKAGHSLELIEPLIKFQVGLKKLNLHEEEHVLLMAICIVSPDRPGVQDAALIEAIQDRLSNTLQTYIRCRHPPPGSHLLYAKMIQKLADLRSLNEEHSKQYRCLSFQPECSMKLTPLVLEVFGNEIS

How the values were obtained:
[1] = qHTS assay to identify small molecule antagonists of the farnesoid-X-receptor (FXR) signaling pathway - cell viability counter screen (AID 743221; active = well fitted cell-killing curve with a large enough effect in the repeat runs, not every such curve was filed as active; note: % is set by controls: 0 for no effect and ±100 for the full control effect; nearly all actives have a fitted effect of over 50% in size); conditions: FXR-bla HEK293T viability, CellTiter-Glo luminescence, 16 h
Procedure, shortened: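 Cytotoxicity counter screen run in the FXR-bla reporter wells: HEK 293T cells exposed to compound with 50 uM (final) chenodeoxycholic acid for 16 h, 37 C, then viability measured by CellTiter-Glo luminescence after 30 min, room temperature.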

[2] = biological target: Vitamin D3 receptor (Homo sapiens) (UniProt P11473); experiment: qHTS assay to identify small molecule antagonists of the vitamin D receptor (VDR) signaling pathway (AID 743223; active = well fitted inhibition curve with a large enough effect in the signal ratio in the repeat runs, not every such curve was filed as active; the % refers to the signal ratio; note: % is set by controls: 0 for no effect and ±100 for the full control effect); conditions: VDR-UAS-bla HEK293T, beta-lactamase FRET ratio, 16 h
Procedure, shortened: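 Antagonist mode: compound added to VDR-bla cells alongside agonist 1alpha,25-dihydroxyvitamin D3 (3 nM final), incubation 16 h at 37C. Read-out is LiveBLAzer FRET fluorescence, 2 h at room temperature.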

[3] = qHTS assay to identify small molecule agonists of the NFkB signaling pathway - cell viability counter screen (AID 1159515; calls by dose curve; note: % is set by controls: 0 for no effect and ±100 for the full control effect; nearly all actives have a fitted effect of over 55% in size); conditions: NFkB-bla ME-180 viability, CellTiter-Glo luminescence, 5 h
Procedure, shortened: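 Cells are seeded (2,000 NFkB-bla ME-180 per well), rested overnight, and dosed with DMSO-dissolved compounds for 5 hr at 37 C. Viability is then read by CellTiter-Glo luminescence after 30 min at room temperature.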

[4] = qHTS assay to identify small molecule agonists of the endoplasmic reticulum stress response signaling pathway - cell viability counter screen (AID 1159517; calls by dose curve;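 note: HeLa cells carrying an ER stress response element beta-lactamase reporter; % is set by controls: 0 for no effect and ±100 for the full control effect; nearly all actives have a fitted effect of over 50% in size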); conditions: ESRE-bla HeLa viability, CellTiter-Glo luminescence, 5 h
Procedure, shortened: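 Steps: seed 1,500 ESRE-bla HeLa cells per well; incubate overnight at 37 C, 5% CO2; add compounds in DMSO for 5 hr; run FRET substrate 2 hr RT; add CellTiter-Glo, wait 30 min, read luminescence.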

[5] = qHTS assay to identify small molecule antagonists of the retinoid-related orphan receptor gamma (ROR-gamma) signaling pathway - cell viability counter screen (AID 1159520); conditions: Tet-on RORgamma CHO cells viability, ATP luminescence, 16 h; at 92.4 µM (top of the series) unless noted; note: % is set by controls: 0 for no effect and ±100 for the full control effect; nearly all actives have a fitted effect of over 50% in size
Procedure, shortened: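 Tet-on ROR gamma CHO cells were given compounds for 2 hr, then doxycycline hyclate at 1 uM final, and incubated 16 hr at 37 C. Viability was measured as ATP content by CellTiter-Glo luminescence.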

[6] = qHTS assay to identify small molecule agonists of the AP-1 signaling pathway - cell viability counter screen (AID 1159525; calls by dose curve; note: nearly all actives have a fitted effect of over 55% in size); conditions: ME-180 AP-1-bla cells viability, ATP luminescence, 5 h; at 76.8 µM (top of the series) unless noted
Procedure, shortened: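 Same-well cytotoxicity counter screen of the Tox21 10K library in ME-180 cells. The readout is ATP-dependent luminescence after 5 h compound treatment. Data are normalised to DMSO and tetra n-octyl ammonium bromide controls.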

[7] = qHTS assay to identify small molecule agonists of the AP-1 signaling pathway (AID 1159526; calls by dose curve; note: % is set by controls: 0 for no effect and ±100 for the full control effect); conditions: ME-180 (cervical carcinoma) AP-1-bla reporter, beta-lactamase FRET ratio, 5 h; at 76.8 µM (top of the series)
[8] = qHTS assay to identify small molecule antagonists of the retinoid acid receptor (RAR) signaling pathway - cell viability counter screen (AID 1159551); conditions: C3RL4 cells viability, ATP luminescence (CellTiter-Glo), 6 h; at 92.4 µM (top of the series) unless noted; note: % is set by controls: 0 for no effect and ±100 for the full control effect; nearly all actives have a fitted effect of over 35% in size
Procedure, shortened: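 Cells (C3RL4) are plated, incubated overnight, dosed with compound in DMSO, then given retinol at 1 uM final. After 6 h at 37 C, CellTiter-Glo is added and luminescence read following 30 min at room temperature.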

[9] = qHTS assay to identify small molecule agonists of the retinoic acid receptor (RAR) signaling pathway (AID 1159553); conditions: C3RL4 RARE luciferase reporter, agonist, 6 h; note: % is set by controls: 0 for no effect and ±100 for the full control effect
Procedure, shortened: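 Seed C3RL4 reporter cells at 1,000 per well and incubate overnight at 37 C. Add compounds in DMSO, incubate 6 hr. Add luciferase reagent, wait 30 min at room temperature, read luminescence.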

[10] = qHTS assay to identify small molecule antagonists of the vitamin D receptor (VDR) signaling pathway - cell viability counter screen (AID 743225); conditions: VDR-bla HEK293T viability, CellTiter-Glo luminescence, 16 h; note: % is set by controls: 0 for no effect and ±100 for the full control effect; nearly all actives have a fitted effect of over 50% in size
Procedure, shortened: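 Cytotoxicity counter screen read by CellTiter-Glo luminescence (30 min, room temperature) in the same wells as the VDR-bla antagonist readout. HEK 293T VDR-UAS-bla cells had 16 h at 37C with compound and 3 nM (final) 1-alpha,25-dihydroxyvitamin D3, then 2 h with FRET substrate.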

[11] = qHTS assay to identify small molecule agonists of the endoplasmic reticulum stress response signaling pathway (AID 1159516; active = well fitted activation curve with a large enough effect in the signal ratio in the repeat runs, not every such curve was filed as active; the % refers to the signal ratio; note: % is set by controls: 0 for no effect and ±100 for the full control effect); conditions: ESRE-bla HeLa, ER stress beta-lactamase reporter, 5 h
Procedure, shortened: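 Cells are seeded at 1,500 per well and incubated overnight. Compounds in DMSO are added for 5 hr at 37 C, then beta-lactamase FRET substrate for 2 hr at room temperature, and fluorescence at 460 and 530 nm is measured.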

[12] = biological target: Nuclear receptor ROR-gamma (Homo sapiens) (UniProt P51449); experiment: qHTS assay to identify small molecule antagonists of the retinoid-related orphan receptor gamma (ROR-gamma) signaling pathway (AID 1159521); conditions: Tet-on RORgamma CHO cells, RORE-luciferase, 16 h; at 92.4 µM (top of the series)
[13] = qHTS assay to identify small molecule agonists of the RXR signaling pathway - cell viability counter screen (AID 1159529); conditions: RXR-alpha-bla HEK293T viability, CellTiter-Glo, 16 h; at 76.8 µM (top of the series)
Procedure, shortened: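 CellTiter-Glo luminescence gave viability in the wells also read for beta-lactamase. Cells (RXR-alpha-UAS-bla HEK 293T, 2% charcoal-stripped FBS medium) had 5 hr plating, then 16 hr compound exposure at 37 C; tetraoctyl ammonium bromide served as positive control.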

[14] = qHTS assay to identify small molecule antagonists of the retinoic acid receptor (RAR) signaling pathway (AID 1159552); conditions: C3RL4 RARE luciferase reporter, retinol-stimulated, 6 h; at 92.4 µM (top of the series)
Procedure, shortened: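 Luminescent RARE reporter read-out in C3RL4 cells: 6 hr co-treatment at 37 C of test compounds with retinol at 1 uM final. Cells plated overnight beforehand; luciferase reagent incubated 30 min at room temperature before reading.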

Nc1cc([N+](=O)[O-])cc([N+](=O)[O-])c1O
inactive: activity change, negative = cytotoxicity ([1]; at 81.1 µM (top of the series)) -13.3% | activity change, negative = inhibition ([2]; at 78.8 µM (top of the series)) 19.7% | activity, negative = cytotoxic ([3]; at 78.8 µM (top of the series)) -12% | activity change, negative = cytotoxicity ([4]; at 78.8 µM (top of the series)) -33.8% | activity, negative = cytotoxicity [5] -21.5% | viability change, negative = cytotoxic [6] 0.792% | activation [7] -14% | activity change, negative = cytotoxicity [8] -6.35% | activation ([9]; at 94.8 µM (top of the series)) -6.5%

O=[N+]([O-])OCC(CO[N+](=O)[O-])(CO[N+](=O)[O-])CO[N+](=O)[O-]
inactive: activity change, negative = cytotoxicity ([1]; at 62.6 µM (top of the series)) -0.157% | activity change, negative = inhibition ([2]; at 61 µM (top of the series)) 5.43% | viability change, negative = cytotoxic ([10]; at 61 µM (top of the series)) 11.6% | activity, negative = cytotoxic ([3]; at 61 µM (top of the series)) 7.84% | activation ([11]; at 61 µM (top of the series)) 0.635% | activity change, negative = cytotoxicity ([4]; at 61 µM (top of the series)) 7.15% | activity, negative = cytotoxicity [5] 0.445% | activity change, negative = inhibition [12] 14.6% | viability change, negative = cytotoxic [6] 1.76% | activation [7] -4.81% | activity change, negative = cytotoxicity [13] 3.26% | activity change, negative = cytotoxicity [8] 0.575% | activity, negative = inhibition [14] 17.3% | activation ([9]; at 73.3 µM (top of the series)) 0.574%

O=[N+]([O-])[O-].[NH4+]
inactive: activity change, negative = cytotoxicity ([1]; at 62.6 µM (top of the series)) 3.1% and 3.19% | viability change, negative = cytotoxic ([10]; at 61 µM (top of the series)) 12.4% and 1.81% | activity, negative = cytotoxic ([3]; at 61 µM (top of the series)) 0.432% and 6% | activation ([11]; at 61 µM (top of the series)) -0.138% and 1.65% | activity change, negative = cytotoxicity ([4]; at 61 µM (top of the series)) -14.7% and 6.48% | activity, negative = cytotoxicity [5] 0.37% and 4.57% | viability change, negative = cytotoxic [6] -0.632% and 22.7% | activation [7] 1.2% and 0.494% | activity change, negative = cytotoxicity [13] 12.7% and 6.04% | activity change, negative = cytotoxicity [8] -0.337% and 1.97% | activation ([9]; at 73.3 µM (top of the series)) 1.55%

CCN(CC)CCCl
inactive: activity change, negative = inhibition ([2]; at 78.8 µM (top of the series)) -13.3% | viability change, negative = cytotoxic ([10]; at 78.8 µM (top of the series)) 8.63% | activity, negative = cytotoxic ([3]; at 78.8 µM (top of the series)) -3.33% | activation ([11]; at 78.8 µM (top of the series)) -2.38% | activity change, negative = cytotoxicity ([4]; at 78.8 µM (top of the series)) -4.79% | activity, negative = cytotoxicity [5] 6.7% | activity change, negative = inhibition [12] -5.58% | viability change, negative = cytotoxic [6] 10.2% | activity change, negative = cytotoxicity [13] -18.2% | activity change, negative = cytotoxicity [8] 0.559% | activity, negative = inhibition [14] -1.06% | activation ([9]; at 94.8 µM (top of the series)) -2.49%
